The target in the assay is T1, human epidermal growth factor receptor 2 (Homo sapiens, endogenous on SKBR3 cells, UniProt P04626).
T1 construct: human epidermal growth factor receptor 2 (HER2), on the HER2-expressing breast cancer cell line SKBR3; also called HER2; HER-2; source: endogenous, on SKBR3 cells
Description: flow cytometry on cells; antibody constructs on HER2-expressing SKBR3 cells, dose series; staining 20 min on ice, goat anti-human IgG FITC secondary antibody, MFI read. As to conditions: one partner purified.

B1: trastuzumab VH R50S+R59N (antibody, V domains shown)
VH: [omitted - about 120 residues]
VL: DIQMTQSPSSLSASVGDRVTITCRASQDVNTAVAWYQQKPGKAPKLLIYSASFLYSGVPSRFSGSRSGTDFTLTISSLQPEDFATYYCQQHYTTPPTFGQGTKVEIK
notes: as the heavy chain of m1 (trastuzumab, Fab part in PDB […]) with R50S and R59N in the VH; as the light chain of m1 (trastuzumab, in PDB […]); Whole antibody (used in ADCC assays)
Regarding B1, the binding result is “binds”.

The values are drawn from PMC12269682 (mAbs, 2025).
